Data published in US8940516B2, “Method for the synthesis of chiral cyanohydrins via a hydroxynitrile lyase from brassicaceae” (Evocatal GmbH, priority 2006, dated 2015).

Chains of the proteins cited; added tags and fusions are not shown. Lines headed by an entry give the natural chain unless they say otherwise; changes in a name come on top.
UniProt Q9LFT6: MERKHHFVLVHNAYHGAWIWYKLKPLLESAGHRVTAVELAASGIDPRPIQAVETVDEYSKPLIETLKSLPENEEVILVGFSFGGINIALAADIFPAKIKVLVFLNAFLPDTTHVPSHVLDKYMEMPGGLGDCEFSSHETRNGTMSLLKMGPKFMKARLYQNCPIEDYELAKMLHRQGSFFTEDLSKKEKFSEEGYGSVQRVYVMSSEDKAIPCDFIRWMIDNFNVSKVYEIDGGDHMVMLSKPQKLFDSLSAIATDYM

molecular target: AtHNL (Arabidopsis thaliana, UniProt Q9LFT6); details: cleavage reaction of cyanohydrin by AtHNL, citrate-phosphate buffer pH 5

Row | Compound | Specify activity (U/mg), HCN-Test (see Ib above) [U/mg]
1 | N#CC(O)c1ccccc1 (stereo not shown) [Benzaldehyde cyanohydrin] | 4.3
2 | N#CC1(O)CCCCC1 | 0.11
3 | CC(C)(O)C#N | <0.05
4 | 3-Phenoxybenzaldehyde cyano- hydrin | 0.3
